Measured values from paper PMC3187749, “Discovery of Diverse Small Molecule Chemotypes with Cell-Based PKD1 Inhibitory Activity” (PLoS ONE, 2011).

How the values were obtained:
recombinant human PKD1 = molecular target: T1, recombinant human PKD1 (Homo sapiens, UniProt Q15139); assay: In vitro radiometric PKD1 kinase assay; assay type: biochemical; details: mean ± range or SD of 2–4 independent experiments
T1 construct: His; purchased Millipore (Billerica, MA)
T1 sequence (Q15139 1-912): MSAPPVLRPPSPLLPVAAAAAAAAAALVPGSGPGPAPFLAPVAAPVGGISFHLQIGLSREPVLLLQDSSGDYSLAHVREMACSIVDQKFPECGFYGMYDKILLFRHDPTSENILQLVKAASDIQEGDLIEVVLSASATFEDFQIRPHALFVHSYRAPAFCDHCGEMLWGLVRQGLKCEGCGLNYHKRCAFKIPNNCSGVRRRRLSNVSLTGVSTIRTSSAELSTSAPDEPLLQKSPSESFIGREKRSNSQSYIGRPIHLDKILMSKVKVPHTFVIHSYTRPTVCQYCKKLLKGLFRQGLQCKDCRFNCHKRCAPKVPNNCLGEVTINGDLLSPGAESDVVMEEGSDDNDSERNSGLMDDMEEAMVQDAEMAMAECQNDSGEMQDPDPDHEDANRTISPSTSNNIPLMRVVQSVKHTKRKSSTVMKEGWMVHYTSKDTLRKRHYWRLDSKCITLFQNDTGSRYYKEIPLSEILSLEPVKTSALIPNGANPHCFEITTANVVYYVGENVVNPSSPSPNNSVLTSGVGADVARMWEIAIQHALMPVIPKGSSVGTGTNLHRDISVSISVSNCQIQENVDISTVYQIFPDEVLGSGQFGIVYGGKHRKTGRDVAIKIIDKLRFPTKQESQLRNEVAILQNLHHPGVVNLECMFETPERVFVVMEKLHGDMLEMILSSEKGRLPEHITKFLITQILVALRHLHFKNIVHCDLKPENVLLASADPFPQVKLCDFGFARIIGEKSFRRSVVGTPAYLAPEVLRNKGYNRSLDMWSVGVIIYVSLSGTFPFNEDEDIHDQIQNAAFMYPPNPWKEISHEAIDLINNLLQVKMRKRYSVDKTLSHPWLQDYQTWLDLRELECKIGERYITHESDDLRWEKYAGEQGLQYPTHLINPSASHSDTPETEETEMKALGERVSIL
Procedure: For compound IC50 confirmation studies, 1 ng/µL recombinant human PKD1 and 20 µg Syntide-2 substrate peptide in 30 µL kinase buffer (50 mM Tris-HCl, pH 7.5, 4 mM MgCl2 and 10 mM β-mercaptoethanol) were incubated with a concentration range (0–100 µM) of test compound. Kinase reactions were initiated with the addition of ATP (50 µM ATP, 1.0 µCi γ-^33P-ATP; Perkin Elmer, Boston, MA) and incubated for 20 min at 30°C. Twenty-five µL of the reaction was spotted onto Whatman P81 filter paper (Whatman Inc., Clifton, NJ). Filter papers were then washed three times in 0.5% phosphoric acid, air-dried, and counted using an LS6500 multi-purpose scintillation counter (Beckman Coulter, Fullerton, CA). IC50 determinations were performed using GraphPad Prism software 5.0. Radiometric PKD2 and PKD3 in vitro kinase assays were performed as previously described.

[1] = molecular target: T2, endogenous PKD1 (Ser916 phosphorylation) in LNCaP prostate cancer cells (Homo sapiens, UniProt Q15139); assay: Western blot of PMA-induced phospho-Ser916-PKD1 in LNCaP cells; assay type: cell-based; details: PMA stimulation, n = 3, read-out: Cellular EC50 (phospho-Ser916-PKD1)
T2 construct: phosphorylation of endogenously expressed PKD1 Ser^916; endogenous in cells; host or cells: LNCaP prostate cancer cells
T2 sequence (Q15139 1-912): T1 sequence (Q15139 1-912)
Procedure: Briefly, prostate cancer cells (LNCaP) were exposed to test compounds. Cells were lysed in buffer (200 mM Tris-HCl, pH 7.4, 100 µM 4-(2-aminoethyl) benzenesulfonyl fluoride, 1 mM EGTA, and 1% Triton X-100) and cell lysates were subjected to SDS-PAGE then electrotransferred to nitrocellulose membranes. Membranes were blocked with 5% nonfat milk in Tris-buffered saline. Membranes were probed with a primary antibody then followed by a secondary anti-mouse or anti-rabbit secondary antibody conjugated to horseradish peroxidase (1∶1000, Bio-Rad). Bands were visualized by the enhanced chemiluminescence Western blotting detection system (Amersham Biosciences). The primary antibodies included p-S916-PKD1 antibody (Millipore) and GAPDH (Enzo Life Sciences, Plymouth Meeting, PA).
[…] Whole cell lysates were immunoblotted for phosphorylated Ser^916-PKD1 with GAPDH serving as a loading control.

Molecule: Nc1nc2ccc([N+](=O)[O-])c(N)c2s1 [CID 5086667]
- IC50 (recombinant human PKD1): 1500 ± 300 nM

Molecule: (6Z)-6-[4-(3-aminopropylamino)-6-methyl-1H-pyrimidin-2-ylidene]cyclohexa-2,4-dien-1-one [CID 5389142]
- IC50 (recombinant human PKD1): 1500 ± 100 nM
- EC50 [1]: 22000 ± 3000 nM
